Amino acid sequences for entries named in this document (tags omitted).
UniProt P00533, whole entry: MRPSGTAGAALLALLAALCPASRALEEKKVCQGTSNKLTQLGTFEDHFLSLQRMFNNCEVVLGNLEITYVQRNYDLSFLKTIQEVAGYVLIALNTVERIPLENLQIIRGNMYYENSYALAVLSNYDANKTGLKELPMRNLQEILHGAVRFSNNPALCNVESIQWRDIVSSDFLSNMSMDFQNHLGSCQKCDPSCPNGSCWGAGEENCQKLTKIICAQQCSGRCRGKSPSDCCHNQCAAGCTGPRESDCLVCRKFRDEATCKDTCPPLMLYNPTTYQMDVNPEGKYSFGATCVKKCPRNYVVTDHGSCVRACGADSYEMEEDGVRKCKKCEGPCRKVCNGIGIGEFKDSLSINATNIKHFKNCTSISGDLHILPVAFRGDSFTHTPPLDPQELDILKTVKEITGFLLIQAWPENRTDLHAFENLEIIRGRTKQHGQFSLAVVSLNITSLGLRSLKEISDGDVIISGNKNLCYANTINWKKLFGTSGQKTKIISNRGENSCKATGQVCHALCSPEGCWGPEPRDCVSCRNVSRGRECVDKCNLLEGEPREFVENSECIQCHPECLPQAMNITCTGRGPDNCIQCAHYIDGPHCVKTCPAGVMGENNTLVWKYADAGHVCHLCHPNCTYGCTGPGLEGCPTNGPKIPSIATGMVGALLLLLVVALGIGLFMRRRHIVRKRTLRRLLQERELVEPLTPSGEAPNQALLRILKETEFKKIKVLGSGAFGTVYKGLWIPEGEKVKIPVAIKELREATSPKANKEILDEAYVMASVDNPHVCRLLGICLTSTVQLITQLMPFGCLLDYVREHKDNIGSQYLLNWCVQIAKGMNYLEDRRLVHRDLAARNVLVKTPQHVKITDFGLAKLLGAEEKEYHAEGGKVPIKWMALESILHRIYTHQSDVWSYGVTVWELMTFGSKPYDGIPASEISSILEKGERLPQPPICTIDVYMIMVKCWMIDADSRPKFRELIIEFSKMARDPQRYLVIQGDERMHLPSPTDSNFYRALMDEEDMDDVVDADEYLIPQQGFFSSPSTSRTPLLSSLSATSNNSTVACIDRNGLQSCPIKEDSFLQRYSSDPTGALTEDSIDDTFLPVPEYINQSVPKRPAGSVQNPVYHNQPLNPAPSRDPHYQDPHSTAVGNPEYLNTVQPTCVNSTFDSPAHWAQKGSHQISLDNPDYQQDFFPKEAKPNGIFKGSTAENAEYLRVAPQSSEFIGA

According to ChEMBL document CHEMBL1129839, “The preparation and sar of 4-(anilino), 4-(phenoxy), and 4-(thiophenoxy)-quinazolines: Inhibitors of p56lck and EGF-R tyrosine kinase activity” (Bioorg Med Chem Lett, 1997):

Biological target: Epidermal growth factor receptor (Homo sapiens, UniProt P00533)

| Compound | IC50 [µM] |
| --- | --- |
| COc1cc2ncnc(Nc3cccc(Cl)c3)c2cc1OC | 0.03 |
| COc1cc2ncnc(Nc3cccc(F)c3)c2cc1OC | 0.025 |
